For 1 compound, Ratio Ki results are on record in ChEMBL document CHEMBL1140788, “Development of CXCR3 antagonists. Part 3: Tropenyl and homotropenyl-piperidine urea derivatives” (Bioorg Med Chem Lett, 2008).

Experiment [1] can be described thus: Selectivity for human CXCR3 over muscarinic M3 receptor.
Experiment [2] can be described thus: Selectivity for human CXCR3 over 5HT1A receptor.
Experiment [3] in a line: Selectivity for human CXCR3 over muscarinic M2 receptor.
Experiment [4] can be described thus: Selectivity for human CXCR3 over 5HT5A receptor.
The nature of experiment [5]: Selectivity for human CXCR3 over sodium channel.
A short description of experiment [6]: Selectivity for human CXCR3 over muscarinic M1 receptor.

Regarding `CC(=O)N1C2C=C(CN3C4CCC3CC(NC(=O)Nc3cc(F)cc(C(F)(F)F)c3)C4)CC1CCC2` (stereo unspecified), the Ratio Ki in experiment [1] was 170; in experiment [2], 40; in experiment [3], 40; in experiment [4] it was 430; in experiment [5], 81; in experiment [6], 33.
